Measured values published in patent publication US8168648B2, “Camptothecin derivatives and uses thereof” (Taiwan Liposome Co., Ltd., priority 2009, dated 2012).

Legend:
Format in all cases: cell-based
HCT-116 = test: In vitro cytotoxicity assay (SRB), HCT-116; settings: HCT-116 (Human colon cancer), 72 hours of incubation
PC14PE6/AS2 = test: In vitro cytotoxicity assay (SRB), PC14PE6/AS2; settings: PC14PE6/AS2 (Non-small cell lung cancer), 72 hours of incubation
DMS-114 = test: In vitro cytotoxicity assay (SRB), DMS-114; settings: DMS-114 (Small cell lung cancer), 72 hours of incubation
MCF-7 = test: In vitro cytotoxicity assay (SRB), MCF-7; settings: MCF-7 (Human breast cancer), 72 hours of incubation

CC(ON=C1c2cc([N+](=O)[O-])cc([N+](=O)[O-])c2-c2c1cc([N+](=O)[O-])cc2[N+](=O)[O-])C(=O)O (stereo not shown)
IC50 (HCT-116): > 10 µM | IC50 (PC14PE6/AS2): 3.33 µM | IC50 (DMS-114): 0.925 µM | IC50 (MCF-7): 6.19 µM
